Listed are the inconclusive results; actives and inactives stand elsewhere. How the source made its calls: active means hit-call score of the fitted dose curve at least 0.9, where 1 is the maximum; inconclusive means response in the unintended direction; inactive means score below 0.9.
How the values were obtained:
[1] = ACEA_ER_80hr: ACEA Biosciences xCELLigence Real-Time Cell Analysis on Estrogen Receptor Agonism for Proliferation (AID 2282667); conditions: T47D proliferation, impedance (xCELLigence), 80 h
How it was run: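 T-47D cells monitored by electrical impedance (xCELLigence) with compound present throughout; 80 h timepoint, positive-direction fitting versus DMSO. Eight-point 1:4 dilutions from 100 uM final, duplicate plates.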

Amino acid sequences for entries named in this document (tags omitted). A change or cut given only in a name is not applied to a line headed by its entry.
UniProt Q14994: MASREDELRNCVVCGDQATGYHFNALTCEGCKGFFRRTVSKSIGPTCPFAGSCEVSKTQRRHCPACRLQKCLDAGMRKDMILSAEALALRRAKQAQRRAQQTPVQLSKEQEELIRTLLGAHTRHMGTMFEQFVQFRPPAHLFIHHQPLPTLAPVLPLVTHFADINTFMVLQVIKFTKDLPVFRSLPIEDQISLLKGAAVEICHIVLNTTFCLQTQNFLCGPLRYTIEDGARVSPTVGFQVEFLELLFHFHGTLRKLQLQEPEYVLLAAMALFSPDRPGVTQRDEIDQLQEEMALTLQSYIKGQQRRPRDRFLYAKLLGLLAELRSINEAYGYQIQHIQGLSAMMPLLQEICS
UniProt P04150: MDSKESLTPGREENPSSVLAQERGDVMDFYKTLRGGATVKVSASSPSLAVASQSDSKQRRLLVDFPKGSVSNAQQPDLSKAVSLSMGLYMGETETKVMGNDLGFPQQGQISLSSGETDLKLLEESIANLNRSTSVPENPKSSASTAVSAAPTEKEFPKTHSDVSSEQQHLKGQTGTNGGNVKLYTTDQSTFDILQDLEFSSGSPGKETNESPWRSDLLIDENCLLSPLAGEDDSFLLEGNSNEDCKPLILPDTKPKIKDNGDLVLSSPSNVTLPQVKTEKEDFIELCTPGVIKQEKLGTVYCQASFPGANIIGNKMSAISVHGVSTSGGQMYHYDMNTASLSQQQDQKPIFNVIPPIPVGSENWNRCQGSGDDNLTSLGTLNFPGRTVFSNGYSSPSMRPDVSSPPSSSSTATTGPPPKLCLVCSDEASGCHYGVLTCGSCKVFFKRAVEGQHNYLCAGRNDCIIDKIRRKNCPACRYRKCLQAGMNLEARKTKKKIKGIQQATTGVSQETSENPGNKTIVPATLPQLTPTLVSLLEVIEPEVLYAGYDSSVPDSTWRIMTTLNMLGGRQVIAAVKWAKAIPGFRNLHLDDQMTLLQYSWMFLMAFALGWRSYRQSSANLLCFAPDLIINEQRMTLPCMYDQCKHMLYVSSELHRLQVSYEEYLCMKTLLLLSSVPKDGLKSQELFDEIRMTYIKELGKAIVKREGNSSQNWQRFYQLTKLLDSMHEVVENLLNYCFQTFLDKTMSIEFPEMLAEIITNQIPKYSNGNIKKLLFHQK
UniProt P10826, whole entry, looked up: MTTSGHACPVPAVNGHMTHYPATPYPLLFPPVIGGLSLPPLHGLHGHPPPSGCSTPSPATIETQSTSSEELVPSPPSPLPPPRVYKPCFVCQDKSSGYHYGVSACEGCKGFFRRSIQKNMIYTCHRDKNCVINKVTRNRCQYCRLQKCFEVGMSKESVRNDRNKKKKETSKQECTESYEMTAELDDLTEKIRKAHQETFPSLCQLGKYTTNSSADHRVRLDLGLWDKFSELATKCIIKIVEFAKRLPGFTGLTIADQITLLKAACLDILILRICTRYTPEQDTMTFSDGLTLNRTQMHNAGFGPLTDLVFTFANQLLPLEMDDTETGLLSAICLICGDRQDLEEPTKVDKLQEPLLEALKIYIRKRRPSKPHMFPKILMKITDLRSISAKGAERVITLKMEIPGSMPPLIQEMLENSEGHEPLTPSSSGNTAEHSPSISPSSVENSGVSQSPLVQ
UniProt P10276, whole entry, looked up: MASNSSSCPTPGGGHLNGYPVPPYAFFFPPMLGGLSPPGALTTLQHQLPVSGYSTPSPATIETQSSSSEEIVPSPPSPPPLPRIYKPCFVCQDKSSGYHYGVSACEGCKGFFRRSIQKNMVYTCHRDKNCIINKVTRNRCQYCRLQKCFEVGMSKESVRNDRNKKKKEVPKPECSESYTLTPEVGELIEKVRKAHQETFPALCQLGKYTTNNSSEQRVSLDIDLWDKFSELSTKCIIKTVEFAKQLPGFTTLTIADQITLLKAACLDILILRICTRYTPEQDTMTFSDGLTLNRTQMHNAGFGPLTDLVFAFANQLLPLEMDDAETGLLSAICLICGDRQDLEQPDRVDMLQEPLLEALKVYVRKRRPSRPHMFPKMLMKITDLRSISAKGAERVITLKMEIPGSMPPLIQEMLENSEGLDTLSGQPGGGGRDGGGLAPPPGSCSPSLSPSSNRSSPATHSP
UniProt P10827: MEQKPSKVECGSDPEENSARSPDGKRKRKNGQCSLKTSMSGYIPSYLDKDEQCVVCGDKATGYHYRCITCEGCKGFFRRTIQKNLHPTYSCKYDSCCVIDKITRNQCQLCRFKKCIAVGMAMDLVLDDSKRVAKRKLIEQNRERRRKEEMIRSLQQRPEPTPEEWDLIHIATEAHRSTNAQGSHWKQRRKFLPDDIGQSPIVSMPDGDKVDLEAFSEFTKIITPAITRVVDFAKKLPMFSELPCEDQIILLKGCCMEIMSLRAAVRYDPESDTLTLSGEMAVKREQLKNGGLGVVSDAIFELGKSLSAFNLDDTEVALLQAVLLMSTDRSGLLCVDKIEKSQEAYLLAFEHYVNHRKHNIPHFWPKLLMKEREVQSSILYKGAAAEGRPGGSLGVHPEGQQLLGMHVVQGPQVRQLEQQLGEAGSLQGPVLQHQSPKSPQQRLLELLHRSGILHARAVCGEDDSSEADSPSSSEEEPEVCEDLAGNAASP
UniProt Q9Y233: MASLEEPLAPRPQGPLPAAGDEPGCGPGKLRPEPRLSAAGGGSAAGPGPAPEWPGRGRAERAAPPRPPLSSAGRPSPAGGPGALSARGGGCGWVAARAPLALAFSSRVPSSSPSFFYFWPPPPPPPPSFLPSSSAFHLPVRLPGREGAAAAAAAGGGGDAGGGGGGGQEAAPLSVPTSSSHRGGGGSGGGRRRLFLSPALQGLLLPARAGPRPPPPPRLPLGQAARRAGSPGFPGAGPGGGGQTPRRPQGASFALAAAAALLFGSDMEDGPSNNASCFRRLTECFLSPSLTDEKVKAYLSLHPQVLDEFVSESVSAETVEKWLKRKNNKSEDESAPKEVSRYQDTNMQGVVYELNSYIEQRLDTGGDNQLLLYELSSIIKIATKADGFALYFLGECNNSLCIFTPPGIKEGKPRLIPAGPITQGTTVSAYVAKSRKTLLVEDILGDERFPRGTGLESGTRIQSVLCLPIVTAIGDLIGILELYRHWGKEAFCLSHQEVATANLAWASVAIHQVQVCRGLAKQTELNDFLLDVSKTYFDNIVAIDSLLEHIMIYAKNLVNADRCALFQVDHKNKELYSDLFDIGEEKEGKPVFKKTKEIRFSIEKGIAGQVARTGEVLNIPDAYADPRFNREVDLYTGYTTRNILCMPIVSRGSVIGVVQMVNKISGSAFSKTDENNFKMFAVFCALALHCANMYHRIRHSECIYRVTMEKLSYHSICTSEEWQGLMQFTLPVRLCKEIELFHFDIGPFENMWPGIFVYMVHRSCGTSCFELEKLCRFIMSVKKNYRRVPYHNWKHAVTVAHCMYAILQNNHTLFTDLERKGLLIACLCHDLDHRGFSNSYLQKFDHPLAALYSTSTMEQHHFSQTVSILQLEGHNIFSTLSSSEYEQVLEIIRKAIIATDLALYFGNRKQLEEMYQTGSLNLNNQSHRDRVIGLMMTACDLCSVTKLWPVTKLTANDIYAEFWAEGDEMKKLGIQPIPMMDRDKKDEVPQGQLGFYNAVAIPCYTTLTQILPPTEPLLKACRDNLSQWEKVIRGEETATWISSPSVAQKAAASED
UniProt P60484: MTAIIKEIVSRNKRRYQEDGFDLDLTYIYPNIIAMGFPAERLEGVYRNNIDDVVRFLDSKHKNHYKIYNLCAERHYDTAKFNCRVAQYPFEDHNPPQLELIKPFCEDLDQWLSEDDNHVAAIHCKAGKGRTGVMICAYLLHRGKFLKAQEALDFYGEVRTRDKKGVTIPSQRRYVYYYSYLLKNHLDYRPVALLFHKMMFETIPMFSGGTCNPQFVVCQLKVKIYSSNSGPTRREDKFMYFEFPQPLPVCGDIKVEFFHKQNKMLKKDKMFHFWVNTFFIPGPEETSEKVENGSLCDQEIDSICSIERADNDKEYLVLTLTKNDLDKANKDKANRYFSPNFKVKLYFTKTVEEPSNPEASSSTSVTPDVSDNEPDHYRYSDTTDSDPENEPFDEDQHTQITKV
UniProt Q92753: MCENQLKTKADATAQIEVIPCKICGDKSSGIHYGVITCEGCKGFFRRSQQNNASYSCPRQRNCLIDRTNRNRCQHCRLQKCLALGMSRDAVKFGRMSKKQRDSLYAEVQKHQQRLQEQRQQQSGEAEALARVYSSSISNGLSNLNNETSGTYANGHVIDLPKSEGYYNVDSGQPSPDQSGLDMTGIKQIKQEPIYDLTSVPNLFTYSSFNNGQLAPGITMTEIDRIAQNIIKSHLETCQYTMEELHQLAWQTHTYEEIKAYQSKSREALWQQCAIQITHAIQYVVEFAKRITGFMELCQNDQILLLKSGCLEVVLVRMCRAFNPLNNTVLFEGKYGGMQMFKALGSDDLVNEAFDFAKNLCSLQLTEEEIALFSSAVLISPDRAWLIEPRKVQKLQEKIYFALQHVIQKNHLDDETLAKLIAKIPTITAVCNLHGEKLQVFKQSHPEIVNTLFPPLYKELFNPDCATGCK
UniProt O15379: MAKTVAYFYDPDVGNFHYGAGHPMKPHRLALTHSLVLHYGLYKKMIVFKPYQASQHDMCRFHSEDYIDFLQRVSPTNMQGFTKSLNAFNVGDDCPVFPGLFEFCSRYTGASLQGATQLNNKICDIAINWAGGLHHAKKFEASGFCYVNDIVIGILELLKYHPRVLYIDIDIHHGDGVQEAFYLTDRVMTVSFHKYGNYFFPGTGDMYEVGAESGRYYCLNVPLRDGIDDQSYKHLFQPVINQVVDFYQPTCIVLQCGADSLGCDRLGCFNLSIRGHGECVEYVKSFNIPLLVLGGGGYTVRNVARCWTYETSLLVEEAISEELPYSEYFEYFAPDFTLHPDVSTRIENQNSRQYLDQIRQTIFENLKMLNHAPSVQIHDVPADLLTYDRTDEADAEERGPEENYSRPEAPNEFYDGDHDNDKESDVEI
UniProt P14600, whole entry, looked up: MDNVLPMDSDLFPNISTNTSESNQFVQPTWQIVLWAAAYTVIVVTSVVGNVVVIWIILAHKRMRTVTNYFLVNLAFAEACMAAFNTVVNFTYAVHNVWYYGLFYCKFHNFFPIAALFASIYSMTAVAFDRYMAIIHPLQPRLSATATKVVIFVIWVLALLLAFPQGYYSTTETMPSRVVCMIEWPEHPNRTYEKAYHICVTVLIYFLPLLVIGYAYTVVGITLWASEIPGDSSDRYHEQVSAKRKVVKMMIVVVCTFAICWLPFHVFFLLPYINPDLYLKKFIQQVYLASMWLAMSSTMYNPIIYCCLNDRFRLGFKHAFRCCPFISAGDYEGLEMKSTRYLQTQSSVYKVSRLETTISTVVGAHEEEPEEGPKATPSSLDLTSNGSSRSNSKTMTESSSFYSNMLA
UniProt P19490: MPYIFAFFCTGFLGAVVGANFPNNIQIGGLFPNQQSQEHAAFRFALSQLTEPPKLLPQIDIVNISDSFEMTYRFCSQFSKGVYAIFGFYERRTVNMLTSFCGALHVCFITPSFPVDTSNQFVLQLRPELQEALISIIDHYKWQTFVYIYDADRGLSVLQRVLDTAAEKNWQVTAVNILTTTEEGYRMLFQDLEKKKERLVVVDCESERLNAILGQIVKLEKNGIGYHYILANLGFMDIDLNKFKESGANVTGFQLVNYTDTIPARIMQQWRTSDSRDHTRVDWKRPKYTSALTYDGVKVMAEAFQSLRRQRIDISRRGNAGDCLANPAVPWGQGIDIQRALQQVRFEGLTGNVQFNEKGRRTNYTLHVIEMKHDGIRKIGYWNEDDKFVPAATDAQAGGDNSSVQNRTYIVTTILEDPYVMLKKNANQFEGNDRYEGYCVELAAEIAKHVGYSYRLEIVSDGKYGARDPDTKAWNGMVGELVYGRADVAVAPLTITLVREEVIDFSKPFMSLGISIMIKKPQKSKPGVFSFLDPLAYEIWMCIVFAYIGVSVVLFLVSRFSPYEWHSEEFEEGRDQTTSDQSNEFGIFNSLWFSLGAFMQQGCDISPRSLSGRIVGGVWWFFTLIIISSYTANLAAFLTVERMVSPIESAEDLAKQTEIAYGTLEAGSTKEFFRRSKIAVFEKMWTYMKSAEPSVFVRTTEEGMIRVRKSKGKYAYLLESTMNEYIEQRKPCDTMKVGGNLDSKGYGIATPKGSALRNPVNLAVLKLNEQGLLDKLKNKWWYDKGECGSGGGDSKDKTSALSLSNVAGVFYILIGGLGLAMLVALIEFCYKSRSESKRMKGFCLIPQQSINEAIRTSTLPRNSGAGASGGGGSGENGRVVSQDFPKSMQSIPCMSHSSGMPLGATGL
UniProt P70536: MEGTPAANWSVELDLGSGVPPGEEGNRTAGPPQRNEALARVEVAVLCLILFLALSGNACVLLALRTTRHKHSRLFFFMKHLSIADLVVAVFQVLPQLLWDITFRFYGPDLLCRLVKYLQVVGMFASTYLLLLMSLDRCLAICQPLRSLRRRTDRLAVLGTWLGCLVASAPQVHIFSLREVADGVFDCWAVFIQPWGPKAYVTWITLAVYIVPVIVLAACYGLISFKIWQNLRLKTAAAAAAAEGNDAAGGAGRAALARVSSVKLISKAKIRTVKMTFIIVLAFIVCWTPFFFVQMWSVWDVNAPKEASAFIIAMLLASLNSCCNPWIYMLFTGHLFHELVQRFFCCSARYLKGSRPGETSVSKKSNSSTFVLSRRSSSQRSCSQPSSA

[2] = target: Nuclear receptor subfamily 1 group I member 3 (Homo sapiens) (UniProt Q14994); experiment: ATG_CAR_TRANS: Attagene TRANS-FACTORIAL HepG2 Assay for human Constitutive Androstane Receptor (CAR) (AID 2282969); conditions: HepG2 Attagene TRANS-FACTORIAL CAR reporter;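 further: activators raise reporter mRNA above DMSO so AC50 marks induction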
How it was run: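 Transiently transfected HepG2, multiplex TRANS reporters (CAR-Gal4 chimera driving GAL4-UAS reporter). 24 h dosing. Readout: reporter transcript by RT-PCR + capillary electrophoresis, fluorescence intensity; positive direction vs DMSO.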

[3] = target: Glucocorticoid receptor (Homo sapiens) (UniProt P04150); experiment: ATG_GR_TRANS: Attagene TRANS-FACTORIAL HepG2 Assay for human Glucocorticoid Receptor (GR) (AID 2282978); conditions: HepG2 Attagene TRANS GR reporter, mRNA transcription;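 further: activators score as hits since higher reporter transcript over DMSO is fitted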
[4] = target: Hepatocyte nuclear factor 4-alpha (Homo sapiens) (UniProt P41235); experiment: ATG_HNF4a_TRANS: Attagene TRANS-FACTORIAL HepG2 Assay for human Hepatocyte Nuclear Factor 4 alpha (HNF4a) (AID 2282982); conditions: HepG2 HNF4a transactivation reporter, mRNA readout
How it was run: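 Transient MRTU transfection of HepG2, 24 h dosing. Readout: reporter mRNA via RT-PCR + capillary electrophoresis, fluorescence; activity fit upward relative to DMSO control.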

[5] = target: human Peroxisome Proliferator-activated Receptor alpha (PPARa), PPARA (gene 5465) (UniProt Q07869); experiment: ATG_PPARa_TRANS: Attagene TRANS-FACTORIAL HepG2 Assay for human Peroxisome Proliferator-activated Receptor alpha (PPARa) (AID 2283001);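 further: potency for gain of reporter signal over DMSO so agonist or activator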
How it was run: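 Transient HepG2 transfection, GAL4-UAS reporters, NR-Gal4 chimeras; 24 h compound exposure. Readout: reporter transcripts by RT-PCR, 6-FAM primer extension, HpaI digest, capillary electrophoresis. Positive direction vs DMSO baseline.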

[6] = target: human Retinoic Acid Receptor beta (RARb), RARB (gene 5915) (UniProt P10826); experiment: ATG_RARb_TRANS: Attagene TRANS-FACTORIAL HepG2 Assay for human Retinoic Acid Receptor beta (AID 2283004)
How it was run: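 HepG2 cells were transiently transfected with GAL4-UAS reporter units that report activity of exogenous chimeric NR-Gal4 proteins, then exposed to compound for 24 h. Reporter mRNA was quantified by RT-PCR with capillary electrophoresis fluorescence, as gain of signal over DMSO.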

[7] = target: Retinoic acid receptor alpha (Homo sapiens) (UniProt P10276); experiment: ATG_RARa_TRANS: Attagene TRANS-FACTORIAL HepG2 Assay for human Retinoic Acid Receptor alpha (RARa) (AID 2283005);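 further: potency for increased reporter signal meaning RARa activation over DMSO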
How it was run: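 HepG2 transiently transfected with multiplex GAL4-UAS reporter units including a human RARa–GAL4 chimera; 24 h compound exposure. Reporter mRNA quantified by RT-PCR, 6-FAM labeling and capillary electrophoresis; gain of signal versus DMSO.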

[8] = target: Retinoic acid receptor RXR-alpha (Homo sapiens) (UniProt P19793); experiment: ATG_RXRa_TRANS: Attagene TRANS-FACTORIAL HepG2 Assay for human Retinoid X Receptor alpha (RXRa) (AID 2283012)
How it was run: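 Read-out: fluorescent reporter-transcript fragments quantified by capillary electrophoresis after RT-PCR. Transiently transfected HepG2 cells carrying GAL4-UAS reporters and NR-GAL4 chimeras were exposed to chemical for 24 h; activity scored as increase over DMSO.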

[9] = target: human Thyroid Receptor alpha (THRa1), THRA (gene 7067) (UniProt P10827); experiment: ATG_THRa1_TRANS: Attagene TRANS-FACTORIAL HepG2 Assay for human Thyroid Receptor alpha (THRa1) (AID 2283014)
How it was run: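 HepG2 cells transiently transfected with chimeric NR-Gal4 and GAL4-UAS reporter units, dosed 24 h. Reporter mRNA quantified by RT-PCR, fluorescent labeling, HpaI digestion and capillary electrophoresis; gain-of-signal fit versus DMSO.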

[10] = target: human Phosphodiesterase 10 (PDE10), PDE10A (gene 10846) (UniProt Q9Y233); experiment: NVS_ENZ_hPDE10: NovaScreen (NVS) Enzymatic Assay for human Phosphodiesterase 10 (PDE10) (AID 2283195)
How it was run: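 Biochemical single-readout PDE10A assay, cell-free, extracted protein. Compounds first screened at 25 uM in duplicate, hits then titrated to 50 uM max. Activity measured after 1 h; loss-of-signal fitted against DMSO negative control.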

[11] = target: human Phosphatase and Tensin Homolog (PTEN), PTEN (gene 5728) (UniProt P60484); experiment: NVS_ENZ_hPTEN: NovaScreen (NVS) Enzymatic Assay for human Phosphatase and Tensin Homolog (PTEN) (AID 2283203)
How it was run: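 Loss of fluorescent product signal after mobility-shift separation reports PTEN activity, recombinant human enzyme, 1 h after compound addition. Single 25 uM duplicate screen, then concentration-response on actives; DMSO baseline.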

[12] = CCTE_Mundy_HCI_Cortical_Synap_Neur_Matur_NeuronCount: CCTE's Synaptogenesis and Neurite Maturation Assay in rat cortical cells for Neuron Count, Mundy Lab (AID 2284242);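 further: neuron number from Hoechst nuclei and MAP2 staining by high-content imaging; hits reduce neuron count versus DMSO baseline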
How it was run: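 Rat cortical cultures; AraC DIV 5; chemical dosing + media change DIV 7 to DIV 12 (288.33 h readout). Fix, Hoechst, anti-MAP2/anti-synaptophysin immunostain; HCI neuron count vs DMSO baseline.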

[13] = CCTE_Mundy_HCI_iCellGluta_NOG_NeuronCount: CCTE's Neurite Outgrowth Assay in iCellGluta cells for Neuron Count, Mundy Lab (AID 2284340);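 further: cells fixed about 48 h after compound addition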
How it was run: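 Neuron count read by automated high-content imaging of Hoechst 33342 and betaIII-tubulin/Alexa Fluor-488 labelling in human iPSC glutamatergic neurons. Activity fitted relative to DMSO.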

[14] = ATG_M_19_TRANS: Attagene TRANS-FACTORIAL HepG2 Assay for M19 Transcription Factor (Internal Marker) (AID 2282974); conditions: HepG2 Attagene TRANS-FACTORIAL M19 internal marker reporter
How it was run: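 Background-control readout: after 24 h chemical exposure of transfected HepG2 carrying GAL4-driven reporter units, RNA was reverse-transcribed, amplified, fluorescently labeled and sized by capillary electrophoresis; gain-of-signal fit against DMSO.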

[15] = ATG_GAL4_TRANS: Attagene TRANS-FACTORIAL HepG2 Assay for GAL4 (Internal Marker) (AID 2282976); conditions: HepG2 Attagene TRANS GAL4 internal marker reporter
How it was run: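 Background-control readout: GAL4-UAS reporter transcript in transiently transfected HepG2 cells after 24 h compound exposure. Measured by RT-PCR, 6-FAM primer extension, HpaI digest and capillary electrophoresis; gain-of-signal fit versus DMSO.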

[16] = target: Bile acid receptor (Homo sapiens) (UniProt Q96RI1); experiment: ATG_FXR_TRANS: Attagene TRANS-FACTORIAL HepG2 Assay for Farnesoid X Receptor (FXR) (AID 2282979); conditions: HepG2 Attagene TRANS FXR-GAL4 reporter transcription;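 further: hits raise reporter mRNA above DMSO so AC50 marks FXR activation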
How it was run: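 HepG2 cells were transiently transfected with GAL4-UAS reporters driven by chimeric NR-Gal4 proteins and dosed for 24 h. Reporter mRNA was quantified by RT-PCR, fluorescent labelling, HpaI digestion and capillary electrophoresis, with gain of signal scored versus DMSO.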

[17] = target: Oxysterols receptor LXR-alpha (Homo sapiens) (UniProt Q13133); experiment: ATG_LXRa_TRANS: Attagene TRANS-FACTORIAL HepG2 Assay for human Liver X Receptor alpha (LXRa) (AID 2282980); conditions: HepG2 Attagene TRANS reporter, LXRa transactivation
How it was run: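 HepG2 cells transiently transfected with GAL4-UAS reporter units for chimeric NR-Gal4 proteins, exposed to chemicals for 24 h. Reporter mRNA quantified by RT-PCR and capillary electrophoresis; gain of signal fitted relative to DMSO.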

[18] = target: human RAR-related Orphan Receptor beta (RORb), RORB (gene 6096) (UniProt Q92753); experiment: ATG_RORb_TRANS: Attagene TRANS-FACTORIAL HepG2 Assay for human RAR-related Orphan Receptor beta (RORb) (AID 2283010);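 further: potency for increased reporter mRNA meaning activation of RORb-Gal4 chimera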
How it was run: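 HepG2, transient MRTU transfection (GAL4-UAS reporters, exogenous NR-Gal4 chimeras); 24 h compound exposure; total RNA → RT-PCR → 6-FAM primer extension → HpaI digest → CE fluorescence. Positive direction vs DMSO baseline.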

[19] = target: Histone deacetylase 3 (Homo sapiens) (UniProt O15379); experiment: NVS_ENZ_hHDAC3: NovaScreen (NVS) Enzymatic Assay for human Histone Deacetylase 3 (HDAC3) (AID 2283163)
How it was run: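 Cell-free enzyme format: loss of fluorescent product after mobility-shift separation, 1 h incubation, recombinant human HDAC3. Single 25 uM duplicate screen first, then concentration series to a 50 uM top for hits; DMSO as baseline.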

[20] = test system: guinea pig Atrionatriuretic Peptide Receptor A (ANPA), gene 100135578; experiment: NVS_GPCR_gANPA: NovaScreen (NVS) G Protein-Coupled Receptor Assay for guinea pig Atrionatriuretic Peptide Receptor A (ANPA) (AID 2283291)
How it was run: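 Displacement of specific radioligand from guinea pig cerebellum membranes was read by scintillation after 1 h. A duplicate single-point screen at 25 uM was followed by a concentration series up to 50 uM, analysed relative to DMSO.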

[21] = target: rat Adrenergic, Alpha 1A Receptor (Adra1A), Adra1a (gene 29412) (UniProt P43140); experiment: NVS_GPCR_rAdra1A: NovaScreen (NVS) G Protein-Coupled Receptor Assay for rat Adrenergic, Alpha 1A Receptor (Adra1A) (AID 2283296)
How it was run: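 Filter radiodetection after 1 h competitive binding on CEC-pretreated rat cortical membranes. Duplicate single-point screening at 25 uM; active chemicals retested across concentration series.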

[22] = target: rat Neurokinin-1 Receptor (NK1), Tacr1 (gene 24807) (UniProt P14600); experiment: NVS_GPCR_rNK1: NovaScreen (NVS) G Protein-Coupled Receptor Assay for rat Neurokinin-1 Receptor (NK1) (AID 2283309)
How it was run: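 Competitive radioligand binding to NK1 in rat submaxillary membranes, 1 h incubation, filtration and scintillation read-out. Compounds first screened at 25 uM in duplicate, then concentration-response for actives; signal loss relative to DMSO.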

[23] = target: rat Glutamate, AMPA Site (AMPA), Gria1 (gene 50592) (UniProt P19490); experiment: NVS_LGIC_rAMPA: NovaScreen (NVS) Ligand-Gated Ion Channel Assay for rat Glutamate, AMPA Site (AMPA) (AID 2283324)
How it was run: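 Screening at 25 uM in duplicate preceded concentration series reaching 50 uM for qualifying compounds. Radioligand displacement on rat forebrain membranes, 1 h, filter-based scintillation readout; reduced binding relative to DMSO.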

[24] = target: human Serotonin, 5-Hydroxytryptamine Receptor 3 (5HT3), HTR3A (gene 3359) (UniProt P46098); experiment: NVS_LGIC_h5HT3: NovaScreen (NVS) Ligand-Gated Ion Channel Assay for human Serotonin, 5-Hydroxytryptamine Receptor 3 (5HT3) (AID 2283325)
How it was run: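 Initially tested at 25 uM in duplicate, then up to 50 uM in concentration-response for actives, compounds competed with a radioligand for HEK293-derived human 5-HT3 receptor. Bound counts were measured by filtration and scintillation at 1 h; loss of signal versus DMSO.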

[25] = target: rat Oxytocin Receptor (OXT), Oxtr (gene 25342) (UniProt P70536); experiment: NVS_GPCR_rOXT: NovaScreen (NVS) G Protein-Coupled Receptor Assay for rat Oxytocin Receptor (OXT) (AID 2283330)
How it was run: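 Binding to rat uterine membrane receptor was followed by scintillation counting of filter-trapped radioligand after 1 h. A 25 uM duplicate single-point screen preceded concentration series with a top of 50 uM. Signal loss was analysed relative to DMSO.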

[26] = target: Retinoic acid receptor RXR-alpha (Homo sapiens) (UniProt P19793); experiment: OT_NURR1_NURR1RXRa_1440: Odyssey Thera (OT) 24-hour HEK293T Protein Complementation Assay for Nurr1/retinoid X receptor (RXR) (AID 2283386)
How it was run: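 Fluorescence PCA read-out; HEK293T; 24 h post-dose; bait/prey fused to reporter fragments; gain-of-signal fit vs DMSO negative control.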

[27] = Tanguay_ZF_120hpf_CIRC_legacy: (Legacy) Oregon State University Tanguay Lab 120 Hour Post-fertilization zebrafish Assay for Circulatory Malformation (AID 2283651)
How it was run: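 Static exposure, 6–120 hpf, 28C, sealed and dark; one dechorionated 5D embryo/well; DMSO 0.64% v/v final. Binary circulation endpoint by brightfield; dead embryos not scored.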

[28] = CCTE_Harrill_HTTr_CellCount_MCF7: CCTE's Cell Proliferation Assessment for the High-Throughput Transcriptomics (HTTr) Platform, Harrill Lab (AID 2284012);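 further: count of Hoechst-stained nuclei per well by high-content imaging in MCF-7 cells; cells exposed to compound for six hours; intended direction is loss of nuclei count meaning fewer cells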
How it was run: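 Readout: Hoechst nuclear count by high-content imaging. MCF-7, 8-point dilution series, 6 h exposure. Bidirectional fit vs DMSO baseline.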

Measured: AC50

O=[N+]([O-])c1ccc([N+](=O)[O-])cc1
inconclusive: [1] 50 µM | [2] 77.2 µM | [3] 154 µM | [4] 100 µM | [5] 0.0819 µM | [6] 2.13 µM | [7] 5.26 µM | [8] 100 µM | [9] 0.0823 µM | [10] 25 µM | [11] 6.24 µM

CC(C)OP(=O)(OC(C)C)SCCNS(=O)(=O)c1ccccc1
inconclusive: [12] 9.08 nM | [13] 162 nM

CN(C(=O)Cc1cccc2occc12)[C@H]1CC[C@@]2(CCCO2)C[C@@H]1N1CCCC1
inconclusive: [1] 45.3 µM | [14] 9.24 nM | [15] 205 nM | [16] 56.5 nM | [17] 184 µM | [4] 24.7 µM | [5] 26.3 µM | [18] 100 µM | [8] 100 µM | [9] 27.3 µM | [19] 22.5 µM | [20] 4.46 µM | [21] 73.4 nM | [22] 22.5 µM | [23] 228 nM | [24] 152 nM | [25] 22.5 µM | [26] 45.2 µM | [27] 27.3 µM | [28] 50 µM

Reference: PubChem BioAssay (EPA / NIEHS)
